Chains of the proteins cited; added tags and fusions are not shown.
UniProt B0FL73, whole entry: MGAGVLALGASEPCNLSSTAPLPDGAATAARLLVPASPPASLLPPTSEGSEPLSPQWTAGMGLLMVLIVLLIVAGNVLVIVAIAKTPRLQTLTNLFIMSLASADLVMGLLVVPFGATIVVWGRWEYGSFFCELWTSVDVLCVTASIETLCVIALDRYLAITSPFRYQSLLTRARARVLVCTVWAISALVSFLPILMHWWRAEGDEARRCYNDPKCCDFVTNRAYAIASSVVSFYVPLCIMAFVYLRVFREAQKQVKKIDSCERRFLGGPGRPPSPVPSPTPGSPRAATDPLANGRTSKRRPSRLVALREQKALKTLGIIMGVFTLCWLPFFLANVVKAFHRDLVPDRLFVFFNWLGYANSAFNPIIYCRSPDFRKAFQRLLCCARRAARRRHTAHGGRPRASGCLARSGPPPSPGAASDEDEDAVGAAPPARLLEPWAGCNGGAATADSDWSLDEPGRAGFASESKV

According to ChEMBL document CHEMBL1122202, “Ultra-short-acting beta-adrenergic receptor blocking agents. 1. (Aryloxy)propanolamines containing esters in the nitrogen substituent” (J Med Chem, 1982):

biological target: T1, Beta-1 adrenergic receptor (Cavia porcellus, UniProt B0FL73); test: In vitro ability to block beta-1 adrenergic receptor in guinea pig right atria.; conditions: read-out: pA2 (converted)

| Kb [nM] | SMILES |
| --- | --- |
| 39.8 | CCOC(=O)CCNCC(O)COc1ccccc1Cl (stereo unspecified) |
| 50.1 | CCOC(=O)CCNCC(O)COc1ccccc1 (stereo unspecified) |
| 631 | CCOC(=O)CNCC(O)COc1cccc2ccccc12 (stereo unspecified) |
| 79.4 | COC(=O)CCNCC(O)COc1cccc2ccccc12 (stereo unspecified) |

The remaining lines, values behind:

| SMILES | Kb [nM] |
| --- | --- |
| COC(=O)c1ccc(CNCC(O)COc2ccccc2C)cc1 (stereo unspecified) | 126 |
| CCOC(=O)CNCC(O)COc1ccccc1 (stereo unspecified) | 2000 |
| CCOC(=O)CCNCC(O)COc1cccc(Cl)c1 (stereo unspecified) | 39.8 |
| CCOC(=O)CCNCC(O)COc1ccc(Cl)cc1 (stereo unspecified) | 398 |
| CCOC(=O)CCCNCC(O)COc1ccccc1 (stereo unspecified) | 251 |
| CCOC(=O)CCCNCC(O)COc1ccccc1C (stereo unspecified) | 39.8 |

biological target: T1, Beta-1 adrenergic receptor; test: The compound was tested in vitro for its ability to block Beta-1 adrenergic receptor in guinea pig trachea; type: tissue-based; conditions: read-out: pA2 (converted)

| Kb [nM] | SMILES |
| --- | --- |
| 200 | COC(=O)c1ccc(CNCC(O)COc2ccccc2C)cc1 (stereo unspecified) |
